Reference: patent publication US12486253B2, “Therapeutics for the degradation of mutant BRAF” (C4 THERAPEUTICS, INC., priority 2021, dated 2025)

By UniProt entry, the sequences of proteins in these tests, tags left out.
UniProt P15056, whole entry V600E: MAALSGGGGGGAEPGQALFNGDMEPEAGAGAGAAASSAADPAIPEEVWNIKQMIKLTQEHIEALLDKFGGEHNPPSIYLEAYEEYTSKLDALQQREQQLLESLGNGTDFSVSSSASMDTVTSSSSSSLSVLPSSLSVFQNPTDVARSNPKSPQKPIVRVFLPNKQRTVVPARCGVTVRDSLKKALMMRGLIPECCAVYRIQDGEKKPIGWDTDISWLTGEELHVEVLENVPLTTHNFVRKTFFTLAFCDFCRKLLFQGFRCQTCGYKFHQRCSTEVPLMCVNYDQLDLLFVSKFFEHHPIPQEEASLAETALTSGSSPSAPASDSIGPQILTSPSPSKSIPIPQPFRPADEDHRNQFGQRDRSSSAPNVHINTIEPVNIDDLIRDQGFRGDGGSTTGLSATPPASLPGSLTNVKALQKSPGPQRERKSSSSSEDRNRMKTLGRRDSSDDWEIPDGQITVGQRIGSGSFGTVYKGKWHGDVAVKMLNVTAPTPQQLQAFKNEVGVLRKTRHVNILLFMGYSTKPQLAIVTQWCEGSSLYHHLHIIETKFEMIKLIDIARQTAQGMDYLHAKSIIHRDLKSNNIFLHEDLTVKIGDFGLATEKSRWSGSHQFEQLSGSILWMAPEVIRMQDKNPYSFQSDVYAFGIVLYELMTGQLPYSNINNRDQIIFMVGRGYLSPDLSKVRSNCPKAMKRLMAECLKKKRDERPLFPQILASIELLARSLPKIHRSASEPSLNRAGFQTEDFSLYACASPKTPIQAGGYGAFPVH

Target: BRAF V600E (Homo sapiens, UniProt P15056, V600E)
Test: HiBiT cellular BRAF^V600E degradation assay
Type: cell-based
Settings: for DC50: read-out: HiBit 24 h DC50; for Emax: read-out: HiBit 24 h Emax
[1] = A375.10 cells, 24 h, concentration at which 50% of total cellular BRAF^V600E is degraded

| SMILES | DC50 [nM] | Emax [%] | DC50 [1] [nM] |
| --- | --- | --- | --- |
| CCN(C)S(=O)(=O)Nc1ccc(F)c(Oc2ccc3ncn(-c4cnc(N5CCN(C(=O)CN6CC[C@@H](c7ccc(N[C@H]8CCC(=O)NC8=O)cc7F)[C@H](OC)C6)CC5)nc4)c(=O)c3c2)c1C#N (single isomer, unassigned) [Example 104] | 56.3 | 22.3 | – |
| CCN(C)S(=O)(=O)Nc1ccc(F)c(Oc2ccc3ncn(-c4cnc(N5CCN(C(=O)C(CO)N6CCC(c7ccc(NC8CCC(=O)NC8=O)cc7F)CC6)CC5)nc4)c(=O)c3c2)c1C#N (centres unmarked) [Example 91, 6-[2-cyano-3-[[ethyl(methyl)sulfamoyl]amino]-6-fluorophenoxy]-3-[2-[4-[2-[4-[4-[(2,6-dioxopiperidin-3-yl)amino]-2-fluorophenyl]piperidin-1-yl]-3-hydroxypropanoyl]piperazin-1-yl]pyrimidin-5-yl]-4-oxoquinazoline] | – | 18.4 | 42.4 |
| CCN(C)S(=O)(=O)Nc1ccc(F)c(Oc2ccc3ncn(-c4cnc(N5CCN(C(=O)[C@H](CO)N6CCC(c7ccc(N[C@H]8CCC(=O)NC8=O)cc7F)CC6)CC5)nc4)c(=O)c3c2)c1C#N [Example 98, 6-[2-cyano-3-[[ethyl(methyl)sulfamoyl]amino]-6-fluorophenoxy]-3-[2-[4-[(2S)-2-[4-[4-[[(3S)-2,6-dioxopiperidin-3-yl]amino]-2-fluorophenyl]piperidin-1-yl]-3-hydroxypropanoyl]piperazin-1-yl]pyrimidin-5-yl]-4-oxoquinazoline] | – | – | 20.1 |

Read-outs that look alike come from different tables or passages of the source.
